From patent US20130071357A1, “IDENTIFICATION, PROLIFERATION IN SITU, HARVESTING, SEPARATION, AND TRANSPLANTATION OF ADULT-DERIVED REGENERATIVE PLURIPOTENT TRANSITIONAL BLASTOMERE-LIKE STEM CELLS AND METHODS OF TREATMENT THEREOF” (HEYGEN, LLC, priority 2011, published 2013) come the findings set out here.

The subject of experiment [1] is adult pluripotent epiblast-like stem cells. Nature of the experiment: induction of epiblast-like stem cells in culture. Format: cell-based, rat. As to conditions: ELSCs. From the text:
Adult pluripotent epiblast-like stem cells (ELSCs) are 6-8 microns in size as assessed by flow cytometry of living cells (Table 1, FIGS. 5,13) [Young et al., 1999]. ELSCs have the potential to form all the downstream somatic cells of the body (FIGS. 14,15) [Young et al., 2004a,b]. ELSCs will not form totipotent blastomeric-like stem cells, gametes (ovum and sperm) or their precursor cells (oogonia or spermatogonia) [Young and Black, 2005a]. […] Adult pluripotent epiblast-like stem cells have a unique pattern of cell surface markers (Table 1) [Young et al., 1999] and stain for stage-specific embryonic antigen (SSEA) (FIG. 8). […] Adult pluripotent epiblast-like stem cells are responsive to any lineage-induction agent across all three primary germ layer lineages (FIGS. 14,15; Table 1) [Young et al., 2004a,b; Young and Black, 2005]. […] As long as the adult pluripotent epiblast-like stem cell remains lineage-uncommitted, it is unresponsive to progression agents like insulin, IGF-I or IGF-II that accelerate the time frame of expression of tissue specific phenotypic differentiation markers (Table 1). […]

Experiment [2] deals with adult totipotent blastomeric-like stem cells. Nature of the experiment: induction of blastomeric-like stem cells in culture. Format: cell-based, rat. Conditions: BLSCs. From the text:
Adult blastomeric-like stem cells display a normal karyotype (FIG. 11). […] 1961; Rohme 1981; Young and Black, 2005a]. […] The smaller-sized adult totipotent blastomeric-like stem cells, i.e., from 0.2 microns to less than 1 micron in size can also be grown in suspension cultures in vitro (Table 1). Adult totipotent blastomeric-like stem cells are responsive to any lineage-induction agent across all three primary germ layer lineages. […] As long as the adult totipotent blastomeric-like stem cell remains lineage-uncommitted, it is unresponsive to progression agents like insulin, IGF-I or IGF-II that accelerate the time frame of expression for tissue specific phenotypic differentiation markers (FIG. 7; Table 1) [Young and Black, 2005a].
FIG. 7. Blastomeric-like stem cells (BLSCs) harvested from male Sprague-Dawley out bred rat 0001 and propagated from a single cell derived by serial dilution clonogenic analysis, then genomically labeled with LacZ to synthesize the beta-galactosidase gene product. Clone designated as Scl-44beta. […] A: Bright field microscopy, positive staining for cell-surface marker CEA-CAM-1. B-L is phase contrast microscopy to show unstained cells in field of view. […]

B1: bone morphogenetic protein-2: lineage-induction agent (protein, UniProt P12643 283-396, looked up)
Bone morphogenetic protein 2: QAKHKQRKRLKSSCKRHPLYVDFSDVGWNDWIVAPPGYHAFYCHGECPFPLADHLNSTNHAIVQTLVNSVNSKIPKACCVPTELSAISMLYLDENEKVVLKNYQDMVVEGCGCR
Consider B1, for which the “response to lineage-induction agent” value in experiment [1] was “forming cells (myoblasts and osteocytes respectively) belonging to the mesodermal lineage”; in experiment [2], “forming cells (myotubes and bone, respectively) belonging to the mesodermal lineage”.
